# Results from publication PMC4878873.
# Target: COP9 signalosome complex subunit 3 (UniProt Q9UNS2)
# Assay: cross-link between two proteins; cross-linking mass spectrometry
substance,measurement,value
"COP9 signalosome complex subunit 8, Q99627",listed as a hit,yes
